According to patent publication US12168763B2, “Microorganisms and methods for reducing bacterial contamination” (Melio Peptide Systems Inc., priority 2020, dated 2024):

Assays:
[1] = tested on: Lactic acid bacteria (LAB); assay: Soft-agar overlay assay of pediocin triple variants (indicator strain not stated)
L. fermentum CCUG 72619 = assay type: cell-based, Lactobacillus fermentum

Substance | Antibacterial activity compared to pediocin double variant K1A/T22A [1] | Lactic and acetic acid levels (L. fermentum CCUG 72619)
Engineered pediocin PA-1 with [listing 1 of 3 here] | None of the pediocin triple variants appeared to further increase activity | –
Engineered pediocin PA-1 with [listing 2 of 3 here] | None of the pediocin triple variants appeared to further increase activity | –
Engineered pediocin PA-1 with [listing 3 of 3 here] | None of the pediocin triple variants appeared to further increase activity | –
virginiamycin | – | significantly lower
